Values quoted from earlier work in US12274284B2, “High-energy food supplement based on inverted sugars and ergogenic products for use in physical activity and method for producing same” (priority 2019, dated 2025).

Key:
[1] = in vivo
[2] = 0.03 g/kg and 5 g/day, eight weeks of resisted exercises

methyl-guanidinoacetic acid [creatine]
strength relatively to the control group [1]: considerably increased strength
kidney and liver function [2]: does not change the kidney or liver function
